Biological target: D(2) dopamine receptor (Rattus norvegicus, UniProt P61169)
Test: Inhibitory concentration against radioligand [3H](-)-sulpiride binding to Dopamine receptor D2 in rat
Procedure, shortened: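 Striatal membranes from male Wistar rats (200–250 g), homogenized in 50 mM Tris/HCl pH 7.7, washed by repeated 50000g spins. Incubated with 15 nM [3H]-sulpiride and at least five concentrations of unlabeled drug. Filtration on PEI-soaked glass-fiber filters, then scintillation counting. IC50 by nonlinear curve fitting, duplicate determinations.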

The chains behind the UniProt entries cited, without tags or fusion partners.
UniProt P61169, whole entry: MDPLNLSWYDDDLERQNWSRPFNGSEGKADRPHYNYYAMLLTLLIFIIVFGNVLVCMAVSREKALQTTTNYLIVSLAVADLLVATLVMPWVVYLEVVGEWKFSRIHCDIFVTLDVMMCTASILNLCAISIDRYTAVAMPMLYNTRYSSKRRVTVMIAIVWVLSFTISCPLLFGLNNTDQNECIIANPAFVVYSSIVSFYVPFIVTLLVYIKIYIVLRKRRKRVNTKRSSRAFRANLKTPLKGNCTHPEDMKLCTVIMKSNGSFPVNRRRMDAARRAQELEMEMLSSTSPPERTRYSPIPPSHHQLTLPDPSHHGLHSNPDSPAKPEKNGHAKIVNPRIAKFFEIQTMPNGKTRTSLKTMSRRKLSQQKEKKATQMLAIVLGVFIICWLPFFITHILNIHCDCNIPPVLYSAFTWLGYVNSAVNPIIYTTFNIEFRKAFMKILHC

- IC50: 5.1 nM
SMILES: CN1CCc2cccc3c2[C@H]1Cc1ccc(O)c(O)c1-3 [APOMORPHINE]

From ChEMBL document CHEMBL1132700, “Design, synthesis, structure-activity relationships, and biological characterization of novel arylalkoxyphenylalkylamine sigma ligands as potential antipsychotic drugs” (J Med Chem, 1999)
